Measurements reported in PubChem BioAssay (NCI).
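Compound exposure: 48 hours, 5 concentrations, 96-well plates. TGI: total growth inhibition.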

How the values were obtained:
Assay in all cases: inhibition of tumour cell growth, NCI panel, 48 h
HL-60(TB) leukemia = test system: HL-60(TB) leukemia
SN12C renal = test system: SN12C renal
OVCAR-4 ovarian = test system: OVCAR-4 ovarian
786-0 renal = test system: 786-0 renal
NCI-H226 lung = test system: NCI-H226 lung
K-562 leukemia = test system: K-562 leukemia
TK-10 renal = test system: TK-10 renal
A549 NSCLC = test system: A549 NSCLC
CCRF-CEM leukemia = test system: CCRF-CEM leukemia
CAKI-1 renal = test system: CAKI-1 renal
SF-268 CNS = test system: SF-268 CNS
NCI/ADR-RES ovarian = test system: NCI/ADR-RES ovarian
SR leukemia = test system: SR leukemia
MDA-MB-231 breast = test system: MDA-MB-231 breast
HOP-92 NSCLC = test system: HOP-92 NSCLC
HOP-62 NSCLC = test system: HOP-62 NSCLC
LOX IMVI melanoma = test system: LOX IMVI melanoma
RXF 393 renal = test system: RXF 393 renal
M14 melanoma = test system: M14 melanoma
UO-31 renal = test system: UO-31 renal
NCI-H460 lung = test system: NCI-H460 lung
UACC-62 melanoma = test system: UACC-62 melanoma
COLO 205 colon = test system: COLO 205 colon
SF-295 CNS = test system: SF-295 CNS
MOLT-4 leukemia = test system: MOLT-4 leukemia
SW-620 colon = test system: SW-620 colon
UACC-257 melanoma = test system: UACC-257 melanoma
BT-549 breast = test system: BT-549 breast
EKVX NSCLC = test system: EKVX NSCLC
OVCAR-8 ovarian = test system: OVCAR-8 ovarian
MALME-3M melanoma = test system: MALME-3M melanoma
RPMI-8226 leukemia = test system: RPMI-8226 leukemia
SK-OV-3 ovarian = test system: SK-OV-3 ovarian
SK-MEL-28 melanoma = test system: SK-MEL-28 melanoma
MDA-MB-435 = test system: MDA-MB-435
IGROV1 ovarian = test system: IGROV1 ovarian
SK-MEL-5 melanoma = test system: SK-MEL-5 melanoma
DU-145 prostate = test system: DU-145 prostate
SNB-75 CNS = test system: SNB-75 CNS
HT29 colon = test system: HT29 colon
HS 578T breast = test system: HS 578T breast
OVCAR-3 ovarian = test system: OVCAR-3 ovarian
PC-3 prostate = test system: PC-3 prostate
MCF7 breast = test system: MCF7 breast
HCT-116 colon = test system: HCT-116 colon
HCC-2998 colon = test system: HCC-2998 colon
SNB-19 CNS = test system: SNB-19 CNS
ACHN renal = test system: ACHN renal
MDA-N = test system: MDA-N
NCI-H23 lung = test system: NCI-H23 lung
T-47D breast = test system: T-47D breast
SF-539 CNS = test system: SF-539 CNS
SK-MEL-2 melanoma = test system: SK-MEL-2 melanoma
KM12 colon = test system: KM12 colon
OVCAR-5 ovarian = test system: OVCAR-5 ovarian
U251 CNS = test system: U251 CNS

Measured: TGI

CCOC1=NC(C(F)(F)F)(C(F)(F)F)N=C(NC2=NP(=O)(OCC)C(C)(C)N2C)O1 (stereo unspecified)
> 100 µM: all assays above
